Test results: EP4837581A1, “COMPOSITION COMPRISING TUBULIN INHIBITOR FOR PREVENTING OR TREATING SKIN DISEASES” (dated 2026)

How the values were obtained:
[1] = tested on: IL-23; experiment: HEK-Blue colorimetric reporter cell line, IL-23 signaling; conditions: 1 µM drug, signaling inducer after 6 hours, measured at OD630mm; FIG. 1
Method: (§1) HEK293 cell lines (Promega) having genes with a colorimetric function inserted into respective signaling promoters of TNF-α, IL-2, IL-4/13, IL-6, IL-12, IL-17, and IL-23 were purchased. The degree of signaling in each cell line may be measured based on the degree to be developed in blue when each signaling was induced.
(§2) Each HEK-Blue cell line was treated with a drug of 1 µM ABT-751 or 1 µM TN-16, and then after 6 hours, a signaling inducer was treated to each cell line.

[2] = tested on: IL-17; experiment: HEK-Blue colorimetric reporter cell line, IL-17 signaling; conditions: 1 µM drug, signaling inducer after 6 hours, measured at OD630mm; FIG. 1
Method: as §1, §2

[3] = tested on: Tyrosinase; experiment: In vitro tyrosinase activity inhibition experiment; conditions: 1.0 µM, 2 mM L-tyrosine substrate, 37°C, absorbance at 490 nm; FIG. 6
Method: This test was a method for evaluating the degree of inhibiting tyrosinase activity in vitro.
The whitening effect of ABT-751 or TN-16 was confirmed by measuring the effect through an in vitro tyrosinase activity inhibition experiment during in vivo experiments. Kojic acid, known to inhibit the tyrosinase activity, was used as a comparative group.
Through the tyrosinase activity inhibition experiment, ABT-751 or TN-16 was treated to a concentration of 1.0 µM in a 2 mM L-tyrosine substrate and measured at 490 nm absorbance, and then added with tyrosinase and reacted at 37°C. After measuring the absorbance at 490 nm again, the absorbance value was calculated to determine the degree to inhibit the tyrosinase activity of ABT-751 or TN-16.

[4] = tested on: IL-6; experiment: HEK-Blue colorimetric reporter cell line, IL-6 signaling; conditions: 1 µM drug, signaling inducer after 6 hours, measured at OD630mm; FIG. 1
Method: as §1, §2

[5] = tested on: NF-κB; experiment: NF-κB promoter luminescent reporter assay in HEK cells induced with TNF-α; conditions: 1.0 µM, 24 hours of drug treatment, compared with TPCA1, FIG. 3
Method: In the experiment, biochemical changes in cells were confirmed through treatment of HEK293 cell lines with ABT-751 or TN-16 to test the inflammatory response.
A human embryonic kidney cell line (HEK) was inserted with a lucifer luminescent gene having an NFkb promoter using a Fugene4K reagent (Promega), and then treated with TNF-α after 6 hours to induce inflammation and NfKb signaling. After 18 hours, ABT-751 or TN16 was treated at a concentration of 1.0 µM.
After 24 hours of drug treatment, an Nfkb signaling mechanism inhibition effect according to treatment of each tubulin inhibitor was measured using a kit (Promega) for measuring the level of lucifer luminescence, and the results were shown in FIG. 3.

[6] = tested on: ZO-1; experiment: Tight junction expression in NHEKs, RT-qPCR; conditions: 1 µM, after 6 hours, compared to the control group; FIG. 5A
Method: (§3) To confirm whether the tubulin inhibitor of the present disclosure was involved in tight junctions, the expression levels of Claudin-1, ZO-1, and Occludin were measured using reverse transcription real-time polymerase chain reaction (RT-qPCR).
(§4) Intracellular RNA was extracted from NHEKs coated with 1 µM concentration of ABT-751 or TN-16, respectively, after 6 hours using an RNeasy mini kit (Qiagen). After reverse transcription of the extracted RNA into cDNA using an ImProm-II™ Reverse Transcription kit (Promega), the expression levels of Claudin-1, ZO-1, and Occludin present in skin cells were measured by a quantitative PCR (qPCR) method using the Real-Time PCR Detection System (Bio-Rad, CFX96).

[7] = tested on: Claudin-1; experiment: Tight junction expression in NHEKs, RT-qPCR; conditions: 1 µM, after 6 hours, compared to the control group; FIG. 5A
Method: as §3, §4

[8] = tested on: Occludin; experiment: Tight junction expression in NHEKs, RT-qPCR; conditions: 1 µM, after 6 hours, compared to the control group; FIG. 5A
Method: as §3, §4

[9] = tested on: TNF-α; experiment: HEK-Blue colorimetric reporter cell line, TNF-α signaling; conditions: 1 µM drug, signaling inducer after 6 hours, measured at OD630mm; FIG. 1
Method: as §1, §2

[10] = tested on: MMP-3; experiment: UV-induced MMP expression in NHEK cells, qPCR; conditions: compared to the control group irradiated with only UV; UV 30 minutes after application; 'mostly' reduced; FIG. 2
Method: (§5) The human NHEK cells were applied with ABT-751 or TN-16, respectively, and irradiated with UV light after 30 minutes to induce photoaging. For comparison and verification of ABT-751 or TN-16, an untreated negative control group and a positive control group irradiated only with UV-A were reflected in the experiment.
(§6) RNA was extracted from skin cells after application and UV irradiation experiment completion. After reverse transcription of the extracted RNA into cDNA, the amounts of MMP-1, MMP-3, and MMP-9 present in skin tissue were measured using a real-time PCR machine by a quantitative PCR (qPCR) method.
(§7) Specifically, a photoaging inhibitory effect of ABT-751 or TN-16 was measured through changes in the expression levels of Matrix Metalloproteinase (MMP) proteins as described above. That is, the expression levels of the MMP proteins were measured in each of a control group irradiated with only UV and an experimental group irradiated with UV after applying ABT-751 or TN-16, respectively, to measure the degree of inhibiting the expression levels of MMP proteins by applying ABT-751 or TN-16, respectively.

[11] = tested on: MMP-1; experiment: UV-induced MMP expression in NHEK cells, qPCR; conditions: compared to the control group irradiated with only UV; UV 30 minutes after application; 'mostly' reduced; FIG. 2
Method: as §5, §6, §7

[12] = tested on: MMP-9; experiment: UV-induced MMP expression in NHEK cells, qPCR; conditions: compared to the control group irradiated with only UV; UV 30 minutes after application; 'mostly' reduced; FIG. 2
Method: as §5, §6, §7

[13] = tested on: normal human epidermal keratinocyte (NHEK); experiment: Skin cell differentiation, phase-contrast microscopy; conditions: 1 µM, day 5 of differentiation, compared to an untreated control group; FIG. 4
Method: After applying ABT-751 or TN-16 using a normal human epidermal keratinocyte (NHEK), the degree of skin cell differentiation was observed and compared with the control group.
The cells were treated with ABT-751 or TN-16 at a concentration of 1 µM, respectively, and then the degree of skin cell differentiation was observed daily using a phase-contrast microscope.

[14] = tested on: ZO-1; experiment: Tight junction protein expression in NHEKs, Western blot; conditions: 1 µM, after 24 hours, compared to the control group; FIG. 5B
Method: (§8) In addition, intracellular proteins were extracted from NHEKs coated with 1 µM concentration of ABT-751 or TN-16, respectively, after 24 hours. The expression levels of Claudin-1, ZO-1, and Occludin proteins present in skin cells among the extracted proteins were measured using Western blot.
(§9) A portion of the collected tissue was homogenized using a tissue homogenizer (Daihan Science Co.), lysed using a cell lysis buffer (RIPA buffer, Invitrogen), and centrifuged using a centrifuge (Labogene), and the supernatant was transferred to a new tube to be used as a protein sample.
(§10) 30 µg of protein samples was loaded onto a PAGE gel (Invitrogen) with a concentration gradient of 4% to 12%, and SDS-PAGE was performed using a running buffer (Invitrogen) and an electrophoresis device (Bio-Rad) to separate the proteins by molecular weight. The separated proteins were transferred to a PVDF thin film (Bio-Rad) and then blocked with a 5% blocking solution (Skim milk; BD).
(§11) The thin film was reacted with claudin-1, ZO-1, occludin antibody (Santa Cruz), or Actin antibody (Abcam) for 16 hours, washed, and then reacted again with a secondary antibody for 1 hour and washed.
(§12) The thin film was reacted with an ECL solution (Thermo Fisher), and then the reacted protein was detected using a luminescence measuring instrument (Fusion Solo, Vilber).

[15] = tested on: Claudin-1; experiment: as above; conditions: 1 µM, after 24 hours, compared to the control group; FIG. 5B
Method: as §8, §9, §10, §11, §12

[16] = tested on: Occludin; experiment: as above; conditions: 1 µM, after 24 hours, compared to the control group; FIG. 5B
Method: as §8, §9, §10, §11, §12

CC(Nc1ccccc1)=C1C(=O)NC(Cc2ccccc2)C1=O (centres unmarked)
signaling of inflammatory cytokine IL-23 [1]: reduction
signaling of inflammatory cytokine IL-17 [2]: reduction
degree to inhibit the tyrosinase activity [3]: exhibited an effect of inhibiting melanin production
signaling of inflammatory cytokine IL-6 [4]: reduction
NF-kB signaling [5]: inhibited NF-kB signaling similarly to TPCA1
expression level of ZO-1 (RT-qPCR) [6]: increased
expression level of Claudin-1 (RT-qPCR) [7]: increased
expression level of Occludin (RT-qPCR) [8]: increased
signaling of inflammatory cytokine TNF-α [9]: reduction
expression level of MMP-3 [10]: ≤ 50%
expression level of MMP-1 [11]: ≤ 50%
expression level of MMP-9 [12]: ≤ 50%
degree of skin cell differentiation [13]: significantly increases
expression level of ZO-1 protein (Western blot) [14]: increased
expression level of Claudin-1 protein (Western blot) [15]: increased
expression level of Occludin protein (Western blot) [16]: increased

COc1ccc(S(=O)(=O)Nc2cccnc2Nc2ccc(O)cc2)cc1
signaling of inflammatory cytokine IL-23 [1]: reduction
signaling of inflammatory cytokine IL-17 [2]: reduction
degree to inhibit the tyrosinase activity [3]: exhibited an effect of inhibiting melanin production
signaling of inflammatory cytokine IL-6 [4]: reduction
NF-kB signaling [5]: inhibited NF-kB signaling similarly to TPCA1
expression level of ZO-1 (RT-qPCR) [6]: increased
expression level of Claudin-1 (RT-qPCR) [7]: increased
expression level of Occludin (RT-qPCR) [8]: increased
signaling of inflammatory cytokine TNF-α [9]: reduction
expression level of MMP-3 [10]: ≤ 50%
expression level of MMP-1 [11]: ≤ 50%
expression level of MMP-9 [12]: ≤ 50%
degree of skin cell differentiation [13]: significantly increases
expression level of ZO-1 protein (Western blot) [14]: increased
expression level of Claudin-1 protein (Western blot) [15]: increased
expression level of Occludin protein (Western blot) [16]: increased
